Results reported in US20190079094A1, “SUBCELLULAR LOCALIZATION OF TARGET ANALYTES” (Beckman Coulter, Inc., priority 2016, published 2019).

System: STATS nuclear translocation in Tregs and other T-cell subsets
Assay: IL2 stimulation, nuclear translocation of STATS in T-cell subsets
Type: cell-based
Excerpt: FIG. 10. Analysis of STATS Nuclear Translocation in Tregs Following IL2 Stimulation. A) The gating of different CD25 subsets in the CD4 and CD8 T-cell populations. B) Analysis of the expression of FoxP3 in the different T-cell subsets gated in part A. In this chart, FoxP3 can be seen to be predominantly in the nucleus of the CD4+CD25hi population, which is expected since this is the Treg population. C) The nuclear translocation of STATS following IL2 stimulation in the different CD4 T-cell populations. IL2 stimulation induced maximal STATS translocation most rapidly in the Treg population, peaking by 2.5 min. The remaining CD4 T cells peaked by 10 min, with the CD25+population more strongly stimulated than the CD25low population. D) The nuclear translocation of STATS in the different CD8 T-cell populations. […] The antibody used for STATS staining in this experiment was directed to the whole STATS protein, not to a phosphorylation site.
The protocol for processing whole blood samples is as follows (see FIG. 1 for a workflow): 1) The sample is first mixed 1:1 with fixative, vortexed, and then incubated for 10 minutes. An extra control tube is included for each buffer, which is stained with all antibodies except for the specific signaling or target antibodies being tested in order to subtract the background signal. […] 6) Once stained, the samples are again washed 2× with PBS or wash buffer, resuspended in PBS+0.5% PFA, and read on a flow cytometer.
After data acquisition, the samples are gated, compensated, and analyzed as standard flow cytometry samples. […] For example, if staining for the subcellular distribution of FoxP3, where the Background MFIs for the Cytoplasm and Whole Cell are 1.5 and the raw FoxP3 signal is 3.5 and 31.5 for the Cytoplasm and Whole Cell, respectively, then the Cytoplasmic MFI would be calculated to be 2 (i.e., 3.5 (raw)−1.5 (background)=2) and the Nuclear MFI would be calculated to be 28 (i.e., 31.5 (raw)−1.5 (background)−2 (Cytoplasm)=28). […]

IL2: cytokine used to stimulate STAT5 nuclear translocation in T cells
time of peak STATS nuclear translocation (CD4+CD25+ cells): 10 min
time of peak STATS nuclear translocation (CD8+CD25+ cells): ≤ 10 min
time of peak STATS nuclear translocation (remaining CD4 T cells (CD25+ and CD25low)): ≤ 10 min
